Reference: patent publication US5128359A, “Benzimidazole and azabenzimidazole derivatives which are thromboxane receptor antagonists, their methods of preparation” (Laboratoires UPSA, priority 1990, dated 1992)

Biological target: T1, TXA2 receptors of human platelets (Homo sapiens, UniProt P21731)
T1 construct: Human platelets incubate in the presence of a single concentration; endogenous in cells; host or cells: human platelets
T1 sequence (P21731 1-343): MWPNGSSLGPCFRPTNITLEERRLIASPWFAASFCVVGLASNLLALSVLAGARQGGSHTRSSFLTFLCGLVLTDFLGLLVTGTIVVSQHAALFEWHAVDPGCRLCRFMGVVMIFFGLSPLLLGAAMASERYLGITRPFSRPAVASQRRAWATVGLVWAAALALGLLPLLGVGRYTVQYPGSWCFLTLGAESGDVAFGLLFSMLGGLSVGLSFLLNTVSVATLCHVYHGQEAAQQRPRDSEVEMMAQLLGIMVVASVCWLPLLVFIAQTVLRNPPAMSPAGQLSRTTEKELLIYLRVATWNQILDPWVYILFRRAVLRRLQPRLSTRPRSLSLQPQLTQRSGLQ
Assay: displacement of radioligand [^125 I]PTA-OH specifically bound to the TXA2 receptors of human platelets
Assay type: binding
Settings: determined according to the formula of CHENG and PRUSOFF, read-out: Ki (inhibition constant)
Description: The affinity of the products of the Examples described for thromboxane A2 receptors is evaluated by the technique of displacing a radioligand specifically bound to the TXA2 receptors of human platelets. […] The reaction is completed by the addition of a buffer, followed by rapid filtration through […] filters. […] The results are expressed, for the doses tested, as the percentage displacement of the radioligand specifically bound to the TXA2 receptors of human platelets.

CC(C)(CC(=O)O)Cc1nc2cc(F)ccc2n1Cc1ccc(Br)cc1F [Example 105, 4-[1-(2-Fluoro-4-bromobenzyl)-5-fluorobenzimidazol-2-yl]-3,3-dimethylbutanoic acid]
pKi: 7.82

pKi: −log10 of the molar value.
